In patent US7244837B2, “Insect monoamine transporter and methods of use thereof” (The University of Western Ontario, priority 1999, dated 2007):

Target: T1, OA/TAT (octopamine/tyramine transporter) (Trichoplusia ni, UniProt Q95VZ4, D309A/R312W)
T1 sequence (Q95VZ4 75-744 D309A/R312W): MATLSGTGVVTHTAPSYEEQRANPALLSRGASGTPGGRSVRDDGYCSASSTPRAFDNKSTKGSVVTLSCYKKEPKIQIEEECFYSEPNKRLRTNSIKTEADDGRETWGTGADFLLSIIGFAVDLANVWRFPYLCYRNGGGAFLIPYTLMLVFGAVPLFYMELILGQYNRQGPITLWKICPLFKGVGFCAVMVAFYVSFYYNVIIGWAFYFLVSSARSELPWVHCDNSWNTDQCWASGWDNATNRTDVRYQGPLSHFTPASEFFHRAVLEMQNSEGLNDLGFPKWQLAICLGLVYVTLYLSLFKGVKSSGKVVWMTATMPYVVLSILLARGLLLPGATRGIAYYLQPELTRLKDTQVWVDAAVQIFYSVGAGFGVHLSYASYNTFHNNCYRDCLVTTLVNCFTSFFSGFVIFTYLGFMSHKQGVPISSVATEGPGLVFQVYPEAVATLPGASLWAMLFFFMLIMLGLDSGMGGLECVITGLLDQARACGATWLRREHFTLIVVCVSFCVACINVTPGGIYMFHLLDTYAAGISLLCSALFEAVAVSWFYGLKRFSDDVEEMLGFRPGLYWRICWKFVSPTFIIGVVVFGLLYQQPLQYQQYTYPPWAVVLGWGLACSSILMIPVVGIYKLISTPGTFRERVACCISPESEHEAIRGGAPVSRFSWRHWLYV
Experiment: 3H-dopamine uptake by OA/TAT expressed in baculovirus-infected Sf21 insect cells (transport assay)
Assay type: cell-based
Settings: read-out: % Inhibition of 3H-Dopamine uptake by OA/TAT

CN(C)CCCN1c2ccccc2Sc2ccc(Cl)cc21 [Chlorpromazine]
inhibition at 10 µM: 41%
